This assay deals with OX2R (Homo sapiens, UniProt O43614). As to the kind of experiment: radioligand binding assay, OX2 receptor. The following applies: read-out: OX2R Ki; membranes prepared from CHO cells expressing the OX2 receptor. As to the method: The utility of the compounds in accordance with the present invention as orexin receptor OX1R and/or OX2R antagonists may be readily determined without undue experimentation by methodology well known in the art, including the “FLIPR Ca^2+ Flux Assay” (Okumura et al., Biochem. Biophys. Res. Comm. 280:976-981, 2001). In a typical experiment the OX1 and OX2 receptor antagonistic activity of the compounds of the present invention was determined in accordance with the following experimental method. […] Within the Fluorescent Imaging Plate Reader (FLIPR, Molecular Devices), test compounds are added to the plate in a volume of 25 ul, incubated for 5 min and finally 25 ul of agonist is added. Fluorescence is measured for each well at 1 second intervals for 5 minutes and the height of each fluorescence peak is compared to the height of the fluorescence peak induced by 70 pM Ala-6,12 orexin-A with buffer in place of antagonist. […] Alternatively, compound potency can be assessed by a radioligand binding assay (described in Bergman et. al. Bioorg. Med. Chem. Lett. 2008, 18, 1425-1430) in which the inhibition constant (Ki) is determined in membranes prepared from CHO cells expressing either the OX1 or OX2 receptor. The intrinsic orexin receptor antagonist activity of a compound which may be used in the present invention may be determined by these assays.

Protein sequences, listed by entry. Tags and fused reporters are not part of them.
UniProt O43614, whole entry: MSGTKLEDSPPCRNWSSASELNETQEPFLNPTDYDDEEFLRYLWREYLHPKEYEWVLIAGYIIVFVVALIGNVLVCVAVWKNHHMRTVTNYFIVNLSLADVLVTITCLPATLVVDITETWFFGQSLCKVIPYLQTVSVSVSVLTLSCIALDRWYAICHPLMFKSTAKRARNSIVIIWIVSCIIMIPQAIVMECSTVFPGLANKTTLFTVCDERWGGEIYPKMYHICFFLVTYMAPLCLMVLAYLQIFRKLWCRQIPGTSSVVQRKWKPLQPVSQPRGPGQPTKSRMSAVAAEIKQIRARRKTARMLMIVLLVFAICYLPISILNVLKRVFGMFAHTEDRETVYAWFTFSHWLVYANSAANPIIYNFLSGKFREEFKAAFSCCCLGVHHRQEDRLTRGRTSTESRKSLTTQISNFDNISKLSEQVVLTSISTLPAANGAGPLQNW

Each structure is given as a SMILES string.

Turning to `COc1ccc(CNC(=O)c2cc(-c3cncc(C)c3)cnc2-c2ccccc2F)nc1OC`, the Ki is 740 pM.

What is called Ki is a dissociation constant, usually derived from enzyme kinetics or from competition with a known ligand.

For the origin of these results see patent publication US8003797B2, “Pyridine carboxamide orexin receptor antagonists” (Merck Sharp & Dohme Corp., priority 2007, dated 2011).
